Results on 6 compounds are retold here after paper PMC9633773, “Discovering cell-active BCL6 inhibitors: effectively combining biochemical HTS with multiple biophysical techniques, X-ray crystallography and cell-based assays” (Scientific Reports, 2022).

Molecules are shown by their SMILES.

One data set deals with Trx-6His-BCL6 BTB (Homo sapiens, UniProt P41182). Description: TR-FRET assay, Trx-6His-BCL6 BTB / BCOR-A633 peptide. Format: biochemical. Conditions: 1 nM BCL6 BTB domain.
In data set [1] the target is full-length BCL6/SMRT protein–protein interaction in HEK293T cells (Homo sapiens, UniProt P41182). Description: NanoBRET cellular assay. It counts as cell-based. Background: BRET reads energy transfer from a luciferase to a nearby fluorophore.
For data set [2], the target named is T1, BCL6 BTB domain (Homo sapiens, UniProt P41182). Description: Fluorescence polarisation (FP) competition assay with BCOR-AF633 peptide. Conditions: repurchased hits; for IC50: read-out: FP IC50 Geometric Mean, up to 2 mM, n=1-6.
In data set [3] the target is T1, BCL6 BTB domain. Nature of the data set: Surface plasmon resonance (SPR).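 For SPR KD: Fail means no measurable KD from unsaturated curves poor sensorgrams or non-1:1 stoichiometry.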 Conditions: immobilised BCL6 BTB, pH 6.0, 1:1 equilibrium model; for Kd: read-out: SPR KD. A general note: Surface plasmon resonance follows binding to a sensor surface in real time, without labels.
Another data set in a line: NMR kinetic solubility. The note with it: 500 µM final compound concentration, 20 mM HEPES buffer pH 8, 2% or 5% DMSO.
For data set [4], the target named is T2, BCL6 BTB (Homo sapiens, UniProt P41182). Nature of the data set: 19F ligand-observed NMR TFA-WVIP-NH2 peptide displacement assay. The note with it: 200 µM compound, 200 µM TFA-WVIP-NH2, 6 µM BCL6 BTB; mean ± SD, n=2; hit if ≥ 30%. Format: binding.
The target in data set [5] is T2, BCL6 BTB. Description: Thermal shift assay (TSA). Conditions: measured at 200 and 400 µM compound; binder if ≥ 1 °C.
A further data set can be described thus: HPLC aqueous solubility. Conditions: pH 7.4, PBS, 1% DMSO.

As usually defined, the Kd is the equilibrium constant for the complex coming apart.

For the compound `Cn1c(=O)n(CCC(C)(C)O)c2cc(Nc3ccnc(Cl)c3C#N)ccc21`, the “TR-FRET pIC50 mean” value on Trx-6His-BCL6 BTB is listed as 6.07. Further, the “Nano BRET pIC50 mean” value in data set [1] (BCL6.NanoLuc/SMRT.HaloTag configuration, 6 h) is recorded as 5.11. Besides, the IC50 in data set [1] (read-out: Nano BRET Geo Mean IC50, BCL6.NanoLuc/SMRT.HaloTag configuration, 6 h, geometric mean n=3–4) was determined as 7.72 µM.
Consider `CC1CCc2nc(SCC(=O)NCC(=O)O)c(C#N)c(C(F)(F)F)c2C1` (stereo not shown), for which, on BCL6 BTB domain [2], the IC50 was found to be 78.4 µM and the “FP pIC50 Mean” value was 4.11. Also, on BCL6 BTB domain [3], the Kd was determined as 412 µM. Further, the “Sol. (NMR kinetic solubility)” value in the data set “NMR kinetic solubility” stood at 466 µM. The “19F LO-NMR, % peptide displaced” value at BCL6 BTB [4] was found to be 69.5 ± 8%. For the same compound, the “TSA Tm (thermal shift)” value on BCL6 BTB [5] was 1-3.5 ºC.
Consider `CN(Cc1ccc2c(c1)OCO2)c1nc2c(cnn2C(C)(C)C)c(=O)[nH]1`, for which, at BCL6 BTB domain [2], the IC50 was 191 µM and the “FP pIC50 Mean” value was 3.72. The “SPR KD” value at BCL6 BTB domain [3] is listed as “Fail”. The “Sol. (by HPLC, marked *)” value in the data set “HPLC aqueous solubility” was 21 µM. In addition, at BCL6 BTB [5], the “TSA Tm (thermal shift)” value is listed as 0 ºC.
For the compound `COc1ccc(C2CC(c3ccc(Cl)cc3)Nc3ncnn32)c(OC)c1OC` (stereo not shown), at BCL6 BTB domain [2], the IC50 stood at 202 µM and the “FP pIC50 Mean” value stood at 3.70. Besides, at BCL6 BTB domain [3], the Kd stood at 558 µM. The “Sol. (NMR kinetic solubility)” value in “NMR kinetic solubility” turned out to be 91 µM. In addition, the “19F LO-NMR, % peptide displaced” value on BCL6 BTB [4] is 52 ± 3%. Moreover, the “TSA Tm (thermal shift)” value on BCL6 BTB [5] is on record as 0.5-1 ºC.
As to `CCC1CCc2nc(SCC(=O)NCC(=O)O)c(C#N)c(C(F)(F)F)c2C1` (stereo not shown), on BCL6 BTB domain [2], the IC50 amounted to 78.7 µM and the “FP pIC50 Mean” value was found to be 4.10. Further, the Kd on BCL6 BTB domain [3] is 1040 µM. In “NMR kinetic solubility”, the “Sol. (NMR kinetic solubility)” value is listed as 494 µM. Besides, the “19F LO-NMR, % peptide displaced” value on BCL6 BTB [4] is listed as 75 ± 7%.
In the case of `Fc1ccc(C2CC(c3cccc(Cl)c3)n3ncnc3N2)cc1` (stereo not shown), at BCL6 BTB domain [2], the IC50 turned out to be 168 µM and the “FP pIC50 Mean” value was found to be 3.77. In addition, the “Sol. (NMR kinetic solubility)” value in the data set “NMR kinetic solubility” is < 30 µM.
